Assay results as given in US20150150960A1, “PROTECTION AGAINST DENGUE VIRUS AND PREVENTION OF SEVERE DENGUE DISEASE” (priority 2010, published 2015).

These compounds were tested on PBMC of DENV seropositive human donors. Settings: allele A*0201; ex vivo IFNγ ELISPOT, Sri Lankan donors.
Type: cell-based

| Compound | T cell response [SFC] |
| --- | --- |
| CSCC[C@H](NC(=O)[C@H](CCSC)NC(=O)[C@H](CC(C)C)NC(=O)[C@@H](N)CS)C(=O)N[C@@H](CCSC)C(=O)N[C@@H](CC(C)C)C(=O)N1CCC[C@H]1C(=O)N[C@@H](C)C(=O)N[C@H](C(=O)N[C@@H](CC(C)C)C(=O)O)[C@@H](C)O | 63 |
| CSCC[C@H](NC(=O)[C@H](CC(C)C)NC(=O)[C@@H](N)CCC(=O)O)C(=O)N[C@@H](CCCNC(=N)N)C(=O)N[C@@H](CCCNC(=N)N)C(=O)NCC(=O)N[C@@H](CC(=O)O)C(=O)N[C@@H](CC(C)C)C(=O)N1CCC[C@H]1C(=O)N[C@H](C(=O)O)C(C)C | 28 |
| CC[C@H](C)[C@H](NC(=O)[C@H](CC(C)C)NC(=O)[C@H](CC(C)C)NC(=O)[C@@H](NC(=O)[C@H](CCSC)NC(=O)[C@H](CC(C)C)NC(=O)[C@@H](N)Cc1ccccc1)C(C)C)C(=O)N1CCC[C@H]1C(=O)N[C@@H](CCC(=O)O)C(=O)N1CCC[C@H]1C(=O)O | 98 |
| CC[C@H](C)[C@H](NC(=O)[C@H](C)NC(=O)[C@H](CC(C)C)NC(=O)[C@H](CS)NC(=O)[C@H](CC(C)C)NC(=O)[C@@H](NC(=O)CNC(=O)[C@H](CCSC)NC(=O)[C@@H](NC(=O)[C@@H](N)Cc1ccccc1)[C@@H](C)O)C(C)C)C(=O)O | 33 |
| CC[C@H](C)[C@H](N)C(=O)N[C@H](C(=O)N[C@@H](CC(C)C)C(=O)N[C@@H](CCC(=O)O)C(=O)N[C@@H](Cc1ccccc1)C(=O)N[C@@H](Cc1ccccc1)C(=O)N[C@@H](CC(C)C)C(=O)N[C@@H](CCSC)C(=O)N[C@H](C(=O)N[C@@H](CC(C)C)C(=O)O)C(C)C)[C@@H](C)CC | 152 |
| CC[C@H](C)[C@H](N)C(=O)N[C@H](C(=O)N[C@@H](CC(C)C)C(=O)N[C@@H](CC(C)C)C(=O)N[C@@H](CS)C(=O)N[C@@H](CC(C)C)C(=O)N[C@H](C(=O)N1CCC[C@H]1C(=O)N[C@H](C(=O)N[C@H](C(=O)O)C(C)C)[C@@H](C)O)[C@@H](C)CC)[C@@H](C)O | 43 |
| CC[C@H](C)[C@H](NC(=O)[C@H](CC(C)C)NC(=O)[C@H](C)NC(=O)[C@H](CC(C)C)NC(=O)[C@H](CC(C)C)NC(=O)[C@H](CCSC)NC(=O)[C@@H](N)CC(C)C)C(=O)N[C@@H](C)C(=O)N[C@H](C(=O)N[C@@H](CC(C)C)C(=O)O)C(C)C | 63 |
| CSCC[C@H](NC(=O)[C@H](CCSC)NC(=O)[C@@H](N)CC(C)C)C(=O)N[C@@H](CCSC)C(=O)N[C@@H](CC(C)C)C(=O)N1CCC[C@H]1C(=O)N[C@@H](C)C(=O)N[C@H](C(=O)N[C@@H](CC(C)C)C(=O)O)[C@@H](C)O | 78 |
| CC[C@H](C)[C@H](NC(=O)[C@H](CC(C)C)NC(=O)[C@H](C)NC(=O)[C@H](CC(C)C)NC(=O)[C@H](CC(C)C)NC(=O)[C@@H](N)CCSC)C(=O)N[C@@H](C)C(=O)N[C@H](C(=O)N[C@@H](CC(C)C)C(=O)O)C(C)C | 85 |
| CC[C@H](C)[C@H](NC(=O)[C@H](CC(C)C)NC(=O)[C@H](CC(C)C)NC(=O)[C@@H](N)CCSC)C(=O)N[C@@H](CC(C)C)C(=O)N[C@@H](CS)C(=O)N[C@H](C(=O)N[C@H](C(=O)N[C@@H](CCC(N)=O)C(=O)N[C@H](C(=O)O)C(C)C)[C@@H](C)O)C(C)C | 103 |
| CSCC[C@H](NC(=O)[C@H](CCSC)NC(=O)[C@@H](N)CCSC)C(=O)N[C@@H](CC(C)C)C(=O)N1CCC[C@H]1C(=O)N[C@@H](C)C(=O)N[C@H](C(=O)N[C@@H](CC(C)C)C(=O)N[C@@H](C)C(=O)O)[C@@H](C)O | 62 |
| CC[C@H](C)[C@H](NC(=O)[C@@H](NC(=O)[C@@H](N)CO)[C@@H](C)CC)C(=O)N[C@@H](CC(C)C)C(=O)N[C@@H](CCC(=O)O)C(=O)N[C@@H](Cc1ccccc1)C(=O)N[C@@H](Cc1ccccc1)C(=O)N[C@@H](CC(C)C)C(=O)N[C@@H](CCSC)C(=O)N[C@H](C(=O)O)C(C)C | 737 |
| CSCC[C@H](NC(=O)[C@H](C)NC(=O)[C@H](CCSC)NC(=O)[C@H](CC(C)C)NC(=O)[C@@H](N)[C@@H](C)O)C(=O)N[C@@H](CC(=O)O)C(=O)N[C@@H](CC(C)C)C(=O)NCC(=O)N[C@@H](CCC(=O)O)C(=O)N[C@@H](CC(C)C)C(=O)O | 67 |
| CC(C)C[C@H](NC(=O)[C@H](CC(C)C)NC(=O)[C@@H](NC(=O)[C@H](C)NC(=O)[C@H](C)NC(=O)[C@@H](NC(=O)[C@H](CC(C)C)NC(=O)[C@@H](N)[C@@H](C)O)[C@@H](C)O)C(C)C)C(=O)N[C@@H](CC(C)C)C(=O)N[C@H](C(=O)O)C(C)C | 43 |
| CC[C@H](C)[C@H](NC(=O)[C@H](C)NC(=O)[C@H](Cc1ccc(O)cc1)NC(=O)[C@H](Cc1c[nH]cn1)NC(=O)[C@@H](NC(=O)[C@@H](NC(=O)[C@H](CC(C)C)NC(=O)[C@H](CC(C)C)NC(=O)[C@H](CC(C)C)NC(=O)[C@@H](N)C(C)C)C(C)C)[C@@H](C)O)C(=O)O | 260 |

Same assay, conditions: allele A*0301; ex vivo IFNγ ELISPOT, Sri Lankan donors

| Compound | T cell response [SFC] |
| --- | --- |
| CC[C@H](C)[C@H](NC(=O)[C@@H](NC(=O)[C@@H](N)CCCNC(=N)N)C(C)C)C(=O)N[C@@H](CC(=O)O)C(=O)N1CCC[C@H]1C(=O)N[C@@H](CCCNC(=N)N)C(=O)N[C@@H](CCCNC(=N)N)C(=O)N[C@@H](CS)C(=O)N[C@@H](CCSC)C(=O)N[C@@H](CCCCN)C(=O)O | 160 |

Same assay, conditions: allele A*1101; ex vivo IFNγ ELISPOT, Sri Lankan donors

| Compound | T cell response [SFC] |
| --- | --- |
| CC[C@H](C)[C@H](NC(=O)[C@H](CC(C)C)NC(=O)[C@H](Cc1ccccc1)NC(=O)[C@H](CC(C)C)NC(=O)[C@H](CCSC)NC(=O)[C@H](C)NC(=O)CN)C(=O)N[C@@H](CO)C(=O)NCC(=O)N[C@@H](CCCCN)C(=O)O | 212 |
| CC[C@H](C)[C@H](NC(=O)[C@H](C)NC(=O)CNC(=O)[C@H](CO)NC(=O)[C@@H](N)CCCCN)C(=O)N[C@@H](CCCCN)C(=O)N[C@H](C(=O)N[C@@H](CC(C)C)C(=O)N[C@@H](CCCCN)C(=O)O)C(C)C | 823 |
| CSCC[C@H](NC(=O)[C@@H](NC(=O)[C@H](Cc1ccc(O)cc1)NC(=O)[C@H](CO)NC(=O)[C@@H](N)CCSC)[C@@H](C)O)C(=O)N[C@@H](CS)C(=O)N[C@@H](CO)C(=O)NCC(=O)N[C@@H](CCCCN)C(=O)O | 48 |
| CC[C@H](C)[C@H](NC(=O)[C@@H](NC(=O)[C@@H](N)CCCNC(=N)N)C(C)C)C(=O)N[C@@H](CC(=O)O)C(=O)N1CCC[C@H]1C(=O)N[C@@H](CCCNC(=N)N)C(=O)N[C@@H](CCCNC(=N)N)C(=O)N[C@@H](CS)C(=O)N[C@@H](CC(C)C)C(=O)N[C@@H](CCCCN)C(=O)O | 117 |
| CC[C@H](C)[C@H](NC(=O)[C@@H](NC(=O)[C@@H](N)CCCNC(=N)N)C(C)C)C(=O)N[C@@H](CC(=O)O)C(=O)N1CCC[C@H]1C(=O)N[C@@H](CCCNC(=N)N)C(=O)N[C@@H](CCCNC(=N)N)C(=O)N[C@@H](CS)C(=O)N[C@@H](CCSC)C(=O)N[C@@H](CCCCN)C(=O)O | 93 |
| CSCC[C@H](NC(=O)CNC(=O)[C@H](CC(C)C)NC(=O)[C@H](CC(=O)O)NC(=O)[C@H](CCCNC(=N)N)NC(=O)[C@H](CCCCN)NC(=O)[C@@H](NC(=O)[C@@H](N)[C@@H](C)O)[C@@H](C)O)C(=O)N[C@@H](CO)C(=O)N[C@@H](CCCCN)C(=O)O | 75 |

Same assay, conditions: allele A*2402; ex vivo IFNγ ELISPOT, Sri Lankan donors

| Compound | T cell response [SFC] |
| --- | --- |
| CC[C@H](C)[C@H](N)C(=O)N[C@@H](CCC(N)=O)C(=O)N1CCC[C@H]1C(=O)N[C@@H](Cc1ccccc1)C(=O)N[C@@H](CC(C)C)C(=O)N[C@@H](C)C(=O)N[C@@H](CC(C)C)C(=O)NCC(=O)N[C@@H](Cc1ccccc1)C(=O)O | 27 |
| CC[C@H](C)[C@H](NC(=O)[C@H](Cc1ccc(O)cc1)NC(=O)[C@@H](N)CCC(N)=O)C(=O)N[C@@H](Cc1ccccc1)C(=O)N[C@H](C(=O)NCC(=O)N[C@@H](CCC(N)=O)C(=O)N1CCC[C@H]1C(=O)N[C@@H](CC(C)C)C(=O)O)[C@@H](C)O | 78 |

Same assay, conditions: allele A*3101; ex vivo IFNγ ELISPOT, Sri Lankan donors

| Compound | T cell response [SFC] |
| --- | --- |
| CC[C@H](C)[C@H](NC(=O)[C@@H](NC(=O)[C@@H](N)CCCNC(=N)N)C(C)C)C(=O)N[C@@H](CC(=O)O)C(=O)N1CCC[C@H]1C(=O)N[C@@H](CCCNC(=N)N)C(=O)N[C@@H](CCCNC(=N)N)C(=O)N[C@@H](CS)C(=O)N[C@@H](CCSC)C(=O)N[C@@H](CCCCN)C(=O)O | 115 |
